Laboratory results: patent publication US9701713B2, “Compositions and methods for introduction of macromolecules into cells” (The Regents of the University of Colorado, a body corporate, priority 2011, dated 2017)

By UniProt entry, the sequences of proteins in these tests, tags left out. Where a name states a change or a piece, a line headed by the entry shows the natural chain unless it says otherwise.
UniProt P07315: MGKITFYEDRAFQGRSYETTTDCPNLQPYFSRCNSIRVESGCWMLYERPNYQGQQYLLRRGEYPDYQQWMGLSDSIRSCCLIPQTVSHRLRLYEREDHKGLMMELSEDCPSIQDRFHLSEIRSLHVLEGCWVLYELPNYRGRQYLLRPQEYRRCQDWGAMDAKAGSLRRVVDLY

Target: T1, T5P γ-crystallin-GFP fusion protein (Homo sapiens, UniProt P07315, T5P)
T1 construct: expressed in transfected cells
T1 sequence (P07315 1-174 T5P): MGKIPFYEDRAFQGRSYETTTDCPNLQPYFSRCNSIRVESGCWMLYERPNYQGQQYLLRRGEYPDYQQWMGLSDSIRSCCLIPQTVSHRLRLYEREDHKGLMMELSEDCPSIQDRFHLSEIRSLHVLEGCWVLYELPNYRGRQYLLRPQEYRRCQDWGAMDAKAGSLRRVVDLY
Test: Tissue culture model of aggregation-prone T5P γ-crystallin-GFP fusion
Format: cell-based
Details: cells expressing T5P γ-crystallin-GFP
Protocol: A tissue culture model system was tested using an endogenous target of alpha crystallin. Human gamma crystallin, either in its wild type form (γ-crystallin) or in an aggregation-prone mutant form (T5P γ-crystallin), was expressed as a fusion with green fluorescent protein (GFP).

fluorescence of T5P-GFP fusion protein (prevention of aggregation): prevented the loss of fluorescence
B1: alpha crystallin: alpha crystallin with chaperone-like activity applied to cells; b52 and b54 name it αA crystallin (protein, UniProt P02489 1-173, looked up)
Alpha-crystallin A chain: MDVTIQHPWFKRTLGPFYPSRLFDQFFGEGLFEYDLLPFLSSTISPYYRQSLFRTVLDSGISEVRSDRDKFVIFLDVKHFSPEDLTVKVQDDFVEIHGKHNERQDDHGYISREFHRRYRLPSNVDQSALSCSLSADGMLTFCGPKIQTGLDATHAERAIPVSREEKPTSAPSS
